Earlier results, collected in patent publication US5463030A, “Metal chelating agents for medical application” (Research Foundation of the State of New York, priority 1994, dated 1995).

Conditions: cited from earlier work

Substance: manganese-ethylene dipyridoxal diphosphate [Mn-DPDP]
- localization in the liver: 47%
